Hits are enriched below; roughly 1.6% of the tested compounds scored in any of these assays.
Vif inh – HIV Vif self-association inhibitors, primary screen, imaging, HEK293T, single point; AID 602346, 2012; HEK293T cells, Vif self-association by quenched fluorescence, 24 h; 340,000 compounds, 0.35% hits; inhibition, % at 7.49 µM; in the data active means inhibition above about 50%, passing the limit was not always enough; inconclusive means no clear call, values can overlap the other calls; inactive means below about 31%
ARNT-TACC3 inh – disruptors of ARNT/TACC3 protein interaction, primary screen, biochemical, AlphaScreen, single concentration; Transforming acidic coiled-coil-containing protein 3 (Homo sapiens), Q9Y6A5; AlphaScreen His-ARNT PAS-B/GST-TACC3 binding, luminescence; TACC3 fragment carries E629A point mutation; inhibition, % at 9.99 µM; 390,000 compounds, 0.66% hits;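 active means mean inhibition of replicates at least 50% and at least half of replicates each reaching 50%; inconclusive means half or more replicates reach 50% but mean below 50%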;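 further: 0% = complete ARNT plus TACC3 wells and 100% = ARNT alone without TACC3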
PglD DTNB – C. jejuni PglD acetyltransferase inhibitors, primary screen, biochemical, DTNB colorimetric, single point | 360,000 compounds, 0.098% hits | purified PglD enzyme, DTNB colorimetric CoA detection | UDP-N-acetylbacillosamine N-acetyltransferase PglD (Campylobacter jejuni) | inhibition, % at 12.5 µM; in the data active means inhibition above about 16%, passing the limit was not always enough; inconclusive means no clear call, values can overlap the other calls
CAL PDZ FP-1 – CAL PDZ peptide-binding inhibitors, primary screen, biochemical, fluorescence polarization, Cer-tagged CAL PDZ, HTS. Golgi-associated PDZ and coiled-coil motif-containing protein (Homo sapiens), Q9HD26. 330,000 compounds, 0.02% hits. inhibition, % at 20 µM. purified CAL PDZ, TMR-peptide fluorescence polarization, 1 h. AID 504414, 2011;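 active means highest replicate inhibition of at least 40%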;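 further: plate controls were DMSO neutral control wells for no effect and unlabeled competitor peptide control wells for full effect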
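Material: tagged CAL PDZ protein CerCALP, purified; buffer or medium: sodium phosphate/NaCl buffer pH 7.4 with TCEP, IgG, Thesit; also added: fluorescent TMR peptide probe; schedule: 1 h incubation at room temperature before polarization reading; technique: fluorescence polarization from S- and P-plane intensities, G-factor corrected; control set: unlabelled peptide and DMSO controls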
Yeast UUG start – modulators of yeast start codon fidelity, primary screen, whole organism, S. cerevisiae, single point, plate reader; S. cerevisiae UUG-firefly luciferase reporter, luminescence/redox ratio; activity score, % at 18.7 µM; actives 0.13% (n = 350,000); AID 602363, 2012;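 active = replicate mean at a twofold rise or more, about +100% in these data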;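 also: firefly luciferase made from a UUG start codon reports start codon fidelity; reporter light over untreated wells divided by growth signal over untreated wells; some hits fall short of that in this replicate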
CAL PDZ FP-2 – untagged CAL PDZ binding inhibitors, primary screen, biochemical, fluorescence polarization, HTS; purified CAL PDZ, TMR-peptide fluorescence polarization, 1 h; inhibition, % at 24.9 µM; 300,000 compounds, 0.92% hits; AID 602252, 2012;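 active means mean inhibition of at least 30% with at least half of replicates also reaching 30%; inconclusive means no clear call, values can overlap the other calls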;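 further: 0% = DMSO neutral control and 100% = excess unlabeled competitor peptide PRC23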
Starred values were filed as active, the others as inactive; ? = inconclusive; nt = not tested or not shown; + = active, no number.

Abbreviations: A = Vif inh; B = ARNT-TACC3 inh; C = PglD DTNB; D = CAL PDZ FP-1; E = Yeast UUG start; F = CAL PDZ FP-2
1. O=C(NCCc1ccccc1C(F)(F)F)C1CCC(=O)N(CCCN2CCCC2=O)C1 (stereo not drawn)
  A: -3; B: -2; C: -1; D: 0; E: -13; F: 52*

2. CC(C)(C)CC(=O)N1CCN(Cc2ccc3c(c2)OCO3)CC1
  A: -2; B: -12; C: -2; D: -2; E: -7; F: 38*

3. O=C(N1CCN(Cc2ccc3c(c2)OCO3)CC1)C(Cl)(Cl)Cl
  A: -25; B: 6; C: 2; D: 1; E: -2; F: -3

4. NC(=O)CC1C(=O)N(c2ccc(Cl)cc2)C(=S)N1NC(=O)c1cccc(F)c1 (stereo not drawn)
  A: -7; B: -8; C: 4; D: nt; E: -9; F: 62*

5. C[C@@H]1CCCCO[C@H](CN(C)Cc2ccc(Cl)c(Cl)c2)[C@H](C)CN([C@@H](C)CO)C(=O)c2cc(NC(=O)NC3CCCCC3)ccc2O1
  A: nt; B: 0; C: -1; D: nt; E: 11; F: nt

6. CCOC(=O)c1cnc(-n2nc(C)cc2C)nc1NC
  A: -6; B: 48*; C: 5; D: -2; E: -26; F: -4

7. CO[C@H]1CN(C)C(=O)c2cc(NC(=O)Nc3c(C)noc3C)ccc2OC[C@@H](C)N(C)C[C@H]1C
  A: nt; B: -1; C: 2; D: nt; E: nt; F: nt

8. Cc1ccc(S(=O)(=O)N[C@@H]2CC[C@H](CC(=O)N3CCC(Cc4ccccc4)CC3)O[C@H]2CO)cc1
  A: nt; B: -7; C: -2; D: nt; E: 6; F: nt

9. Cc1[nH]c(=O)[nH]c(=O)c1/C=C/C(=O)O
  A: 10; B: -4; C: -2; D: -1; E: -14; F: 70*

10. CCCC#Cc1ccc2c(c1)O[C@@H](CN(C)C)[C@H](C)CN([C@@H](C)CO)S2(=O)=O
  A: nt; B: -7; C: -3; D: nt; E: -6; F: nt

11. Cc1occc1C(=O)N/N=C/c1sc(N2CCOCC2)nc1-c1ccccc1
  A: -3; B: nt; C: nt; D: 0; E: nt; F: nt

12. Cc1occc1C(=O)N/N=C/C1=C(N2CCOCC2)C(=C/c2ccc(Cl)cc2Cl)/CC1
  A: 133*; B: -7; C: 5; D: -2; E: -17; F: -5

13. CCOc1ccc(OCC)c(NC(=O)C2CCCN(S(=O)(=O)c3c(C)noc3C)C2)c1 (stereo not drawn)
  A: ?; B: 12; C: 1; D: -5; E: -12; F: 33*

14. CCCCC(=O)N1C/C=C\[C@H](c2ccc(OC)cc2)N(Cc2ccc(F)cc2)C(=O)[C@@H]1C
  A: -4; B: 8.3*; C: 2; D: 1; E: -16; F: -1

15. CNC[C@H]1Oc2ccc(NC(=O)Cn3cnnn3)cc2CC(=O)N([C@@H](C)CO)C[C@@H]1C
  A: nt; B: 0; C: -1; D: nt; E: -5; F: nt

Next part
Abbreviations: A = Vif inh; B = ARNT-TACC3 inh; C = PglD DTNB; D = CAL PDZ FP-1; E = Yeast UUG start; F = CAL PDZ FP-2
16. O=C(CNc1cc([N+](=O)[O-])ccc1NCCO)Nc1cccc(S(=O)(=O)N2CCCCC2)c1
  A: -5; B: 22; C: -1; D: 0; E: 8; F: -3

17. O=C(CNc1cccc(S(=O)(=O)N2CCCCCC2)c1)Nc1cccc([N+](=O)[O-])c1
  A: -6; B: 50*; C: 2; D: 0; E: -9; F: 5

18. Cc1cc(C)nc(Nc2n[nH]c(-c3ccccc3Cl)n2)n1
  A: -5; B: -1; C: nt; D: 0; E: nt; F: 38*

19. Cc1cc(C)nc(Nc2n[nH]c(-c3cccc4ccccc34)n2)n1
  A: nt; B: -24; C: 10; D: -2; E: -23; F: -1

20. CCC(=O)Nc1ccc2c(c1)C(=O)N(C)C[C@H](OC)[C@H](C)CN(Cc1ccccn1)[C@@H](C)CO2
  A: nt; B: 1; C: -1; D: nt; E: -20; F: nt

21. Cc1ccc(S(=O)(=O)N(C)C(C)CCc2ccco2)cc1 (stereo not drawn)
  A: -2; B: -4; C: 6; D: -1; E: 0; F: +

22. COc1ccc(NC(=O)N(C)C[C@@H]2OCCCC[C@@H](C)Oc3ccc(NS(=O)(=O)c4cn(C)cn4)cc3C(=O)N([C@H](C)CO)C[C@H]2C)cc1
  A: nt; B: 6; C: -6; D: nt; E: -25; F: nt

23. CNC[C@@H]1Oc2ccc(NS(=O)(=O)c3ccc(C)cc3)cc2C(=O)N([C@@H](C)CO)C[C@H]1C
  A: nt; B: -10; C: 0; D: nt; E: -3; F: nt

24. COc1cc(N)ccc1-c1cc2ccccc2oc1=O
  A: 6; B: -1; C: -5; D: 0; E: 5; F: 1

25. Cc1cc(N)ccc1-c1cc2ccccc2oc1=O
  A: 52*; B: 26; C: 0; D: -3; E: -20; F: 5

26. Cc1ccccc1C(=O)OC(C)CN1CCN(C)CC1 (stereo not drawn)
  A: -4; B: -4; C: -4; D: 9; E: -7; F: 116*

27. Oc1[nH]c2ccccc2c1N=NC(=S)N1CCOCC1
  A: 17; B: 66*; C: -11; D: 1; E: -25; F: 3

28. Oc1cccc(NC(=S)N=Nc2c(O)[nH]c3ccccc23)c1
  A: 2; B: 54*; C: -14; D: -1; E: -26; F: -8

29. Oc1[nH]c2ccc(Br)cc2c1N=NC(=S)N1CCOCC1
  A: -3; B: 66*; C: -1; D: -1; E: -27; F: -5

30. NC(=S)N=Nc1c(O)[nH]c2ccccc12
  A: -7; B: 31; C: -6; D: -1; E: -16; F: nt

Compounds listed so far with a furan ring, fused or not:
Abbreviations: A = Vif inh; B = ARNT-TACC3 inh; C = PglD DTNB; D = CAL PDZ FP-1; E = Yeast UUG start; F = CAL PDZ FP-2
11. Cc1occc1C(=O)N/N=C/c1sc(N2CCOCC2)nc1-c1ccccc1
  A: -3; B: nt; C: nt; D: 0; E: nt; F: nt

12. Cc1occc1C(=O)N/N=C/C1=C(N2CCOCC2)C(=C/c2ccc(Cl)cc2Cl)/CC1
  A: 133*; B: -7; C: 5; D: -2; E: -17; F: -5

21. Cc1ccc(S(=O)(=O)N(C)C(C)CCc2ccco2)cc1 (stereo not drawn)
  A: -2; B: -4; C: 6; D: -1; E: 0; F: +

(continued)
Abbreviations: A = Vif inh; B = ARNT-TACC3 inh; C = PglD DTNB; D = CAL PDZ FP-1; E = Yeast UUG start; F = CAL PDZ FP-2
31. Cc1noc(C)c1NC(=O)N(C)C[C@@H]1OCCCC[C@@H](C)Oc2ccc(NS(=O)(=O)c3ccc(Cl)cc3)cc2C(=O)N([C@@H](C)CO)C[C@H]1C
  A: nt; B: -1; C: -3; D: nt; E: -3; F: nt

32. O=C(C[C@@H]1C=C[C@H](NC(=O)C2CC2)[C@@H](CO)O1)NC1CCC1
  A: nt; B: -4; C: 1; D: nt; E: nt; F: nt

33. C[C@@H]1CN([C@H](C)CO)C(=O)c2cc(NC(=O)C3CC3)ccc2O[C@H]1CN(C)C
  A: nt; B: 49*; C: -2; D: nt; E: nt; F: nt

34. CC(C)NC(=O)N(C)C[C@@H]1Oc2ccc(NC(=O)Cc3cn(C)c4ccccc34)cc2C(=O)N([C@H](C)CO)C[C@H]1C
  A: nt; B: 2; C: 26*; D: nt; E: 9; F: nt

35. COCCNC(=O)c1ccc(S(=O)(=O)N2CCCc3ccccc32)cc1
  A: -1; B: nt; C: 0; D: 0; E: 15; F: 59*

36. O=C(O)c1ccc(S(=O)(=O)N2CCCc3ccccc32)cc1
  A: -16; B: 4; C: 2; D: 0; E: -23; F: -6

37. C=CCNCCCCOc1ccc(OCC)cc1
  A: 13; B: -3; C: 3; D: nt; E: 0; F: 45*

38. O=C(CCN1CCOCC1)Nc1cc(C(=O)Nc2ccc(Cl)cc2)ccc1N1CC2CC(C1)c1cccc(=O)n1C2 (stereo not drawn)
  A: 13; B: 14; C: 1; D: -3; E: 3; F: 62*

39. CC(=O)c1ccc2cccc3c2c1N=CN3C
  A: 67*; B: 1; C: 2; D: 0; E: -43; F: -3

40. CC(=O)N1[C@H](CO)[C@H](c2ccc(C3=CCCC3)cc2)[C@H]1CNC(=O)CN(C)C
  A: nt; B: -3; C: -2; D: nt; E: -6; F: nt

41. O=C(CN1CC(c2ccccc2)CC1=O)N/N=C/c1cc(Br)ccc1O (stereo not drawn)
  A: -7; B: 48*; C: nt; D: -3; E: nt; F: -4

42. Oc1ccccc1-c1cc(-c2ccc(F)cc2)n[nH]1
  A: 11; B: -4; C: -4; D: -1; E: -13; F: 34*

43. Cc1ccc(-c2cc(-c3ccc(C)cc3O)[nH]n2)cc1
  A: -1; B: -11; C: 4; D: nt; E: -24; F: -7
